We go through 1 compound from ChEMBL document CHEMBL3526057, “Evaluation of the effects of 20 nonsynonymous single nucleotide polymorphisms of CYP2C19 on S-mephenytoin 4'-hydroxylation and omeprazole 5'-hydroxylation” (Drug Metab Dispos, 2011).

In the data set the target is Cytochrome P450 2C19 (Homo sapiens, UniProt P33261, D360N). In words: Activity of human recombinant CYP2C19 D360N mutant expressed in Saccharomyces cerevisiae BJ5457 assessed as omeprazole 5'-hydroxylation per pmol protein at 5 uM after 60 mins. It is filed as ADME. The note with it: recombinant enzyme, 1 h.

`COc1ccc2[nH]c([S+]([O-])Cc3ncc(C)c(OC)c3C)nc2c1` (stereo unspecified) [OMEPRAZOLE]: the Drug metabolism stood at 1.81 pmol/min.
